Reference: patent US20240245795A1, “PREPARATION METHOD AND APPLICATION OF ANTIBODY DRUG CONJUGATE” (priority 2021, published 2024)

System: COLO205 human colon cancer cells
Test: In vivo anti-tumor experiment (1), COLO205 xenograft, low HER2
Parameters: species or system female nude mice
Settings: 10 mg/kg i.v. on day 0, COLO205 low HER2
Method: The efficacy of the combination of the present invention can be measured in vivo, i.e., an allograft or xenograft of cancer cells was implanted in rodents, and the tumors were treated with the combination. Test mice were treated with drugs or controls and monitored for several weeks or longer to measure the time to tumor doubling, log cell killing, and tumor inhibition.
COLO205 human colon cancer cells (ATCC) with low expression of HER2 were suspended in physiological saline. 4×10^7 cells were subcutaneously transplanted into the right flank of female nude mice, which were randomized into groups on day 6. […] As a control group, a PBS buffer-administered group was set.

With Kadcyla the “tumor growth inhibitory activity” value was “did not show tumor growth inhibitory activity”.
